# Yeast mating assay 2: variants of the scFv Ab-91

The measurements come from Engelhart et al. 2022 (doi:10.1038/s41597-022-01779-4) through the FLAb antibody collection.

Target peptide (SARS-CoV-2 spike, HR2 region): PDVDLGDISGINAS

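The starting antibody came from a phage panning campaign against this peptide. In library AAYL51, one, two or three CDR residues were substituted; doubles and triples were drawn at random. In AlphaSeq, yeast of one mating type display the scFv and yeast of the other type display the target. Mating (16 h, 30 °C) was followed by selection of diploids and sequencing of their barcodes. Each replicate has its own calibration line, from reference interactions of the BCL2 family. Mating was done three times.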

Parent: Ab-91, a human scFv built as VL, a (GGGGS)3 linker, VH. Only the CDRs of the heavy chain vary.
VL: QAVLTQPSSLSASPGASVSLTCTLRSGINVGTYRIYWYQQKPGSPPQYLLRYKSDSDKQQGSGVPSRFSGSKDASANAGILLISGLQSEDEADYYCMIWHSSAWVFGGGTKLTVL
VH: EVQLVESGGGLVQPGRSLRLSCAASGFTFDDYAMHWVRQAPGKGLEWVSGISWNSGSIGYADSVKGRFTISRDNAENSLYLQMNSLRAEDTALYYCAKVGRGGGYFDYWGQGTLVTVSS

The parent's heavy chain CDRs are GFTFDDYAMH, GISWNSGSIGYADSVK, VGRGGGYFDY; each variant's own CDRs replace them letter for letter. The read-out is the apparent dissociation constant on a log10 scale (nM): the lower, the stronger. Averages over replicates are reported, and they cover detected replicates only. "nd" means that the variant was in the library but no mating with the target was seen in that replicate; the authors take this as a sign of poor binding, and no number exists. Nonspecific signal, from three strains lacking the peptide, appeared in 21% of pairings of library AAYL51, centred on 4.54 (5% of these signals below 3.26); values are not corrected for it. For each scFv, signals with the empty controls are counted beside the result, with their mean in brackets. For reference, the parent read 1.86 as the reference entry and 0.88 as a member of this library.

CDR-H1 | CDR-H2 | CDR-H3 | replicates, log10 nM | mean, log10 nM | signal with controls
GFTFDDYKTH | GISWNSGSIGYADSVK | VGRGGGYFKY | 6.29 4.26 4.52 | 5.02 | 2/9 (5.12)
GFTFDDYAMH | GNSRNSGSIGYADSVK | VPRGGGYFDY | nd nd 3.95 | 3.95 | 0/9
GDTFDDYAMH | GIEWNSGSIGKADSVK | VGRGGGYFDY | nd nd nd | nd | 0/9
GFLFDDGAMH | GISWNSGSIGYADSVK | VGRGGSYFDY | nd nd nd | nd | 1/9 (4.58)
GFTFDDYQMH | GISWNSGSIGYADSVK | VGRGCGSFDY | nd nd nd | nd | 0/9
GFTFDDYAMH | AISWNSGSIGYARSVK | VGRGGGYFDY | 5.51 nd nd | 5.51 | 5/9 (4.79)
GFTFDDYAMH | GSSWNSGSIGYADSRK | VGRGGGYFDY | nd nd nd | nd | 1/9 (3.99)
GFTKDDYAMH | GISWNSISIGYADSVK | VGRGGGYFDY | nd nd nd | nd | 2/9 (3.76)
TFTFDDYACH | GIIWNSGSIGYADSVK | VGRGGGYFDY | nd 3.93 5.29 | 4.61 | 3/9 (4.47)
GFTFDDYAMH | GMSWNSGSIGYADSVK | VGRMGGYFYY | 4.16 nd nd | 4.16 | 3/9 (4.04)
GFTFDDYAMH | GMSWNSWSIGYADSDK | VGRGGGYFDY | nd nd nd | nd | 0/9
GFTFDDYWKH | GISWNSGSIGYADSVK | VGRGGGFFDY | nd 5.85 4.39 | 5.12 | 2/9 (5.10)
GFTFDDDAMH | GISWNSGSIGYADSVK | VGRGGGYFDY | nd nd nd | nd | 0/9
GFTFDDYAMH | DISWNSGSIGYADSVK | VSRGGKYFDY | nd nd nd | nd | 0/9
GFTVDDYAMQ | GISWNSGSIGYADSVK | VGRGGGYFDY | 4.95 5.23 5.23 | 5.14 | 6/9 (4.71)
GFTFDDYAMH | GISANSTSIGYADSVK | VGRGGGYFDM | 4.31 nd nd | 4.31 | 5/9 (4.84)
GFTFDDYAQH | GISNNSGSPGYADSVK | VGRGGGYFDY | 5.25 5.06 nd | 5.15 | 4/9 (4.31)
GFTFDDYAMY | GISWNSGSIGYADSVY | VGRGGGYFDY | nd nd nd | nd | 1/9 (4.74)
GFTFDDYAMH | GIGRNSGSIGYADSVK | VGRGGEYFDY | nd nd nd | nd | 0/9
GFTFDDYAMH | GIFWNSGSIGYADSVK | VGRGGGYFNG | 4.02 nd nd | 4.02 | 0/9
GFTFDDYAME | GISWSSGSIGYADSVK | VGRGGGYVDY | nd nd nd | nd | 1/9 (3.69)
GFTFDDYAMA | GIKWNSGSIGYADSQK | VGRGGGYFDY | nd nd nd | nd | 3/9 (4.28)
GFTFDDYAMH | GISWFSGIEGYADSVK | VGRGGGYFDY | nd nd nd | nd | 1/9 (3.94)
GFTFDDYAMH | GISWNSGSIGYADSVK | VIRGGGYVDY | nd nd nd | nd | 2/9 (3.47)
GFTFDDRAWH | GISWNSGSIGYASSVK | VGRGGGYFDY | nd 4.71 nd | 4.71 | 2/9 (5.00)
GFTFDDYRMC | GISWNSGSIGYADSVK | VGRGMGYFDY | 3.37 4.78 nd | 4.07 | 3/9 (4.53)
GFTFDDYAMH | GIMQNSGSITYADSVK | VGRGGGYFDY | 4.04 5.21 nd | 4.62 | 3/9 (4.50)
GFTFDDYAMH | GISGNSGSIIYADSVQ | VGRGGGYFDY | nd nd nd | nd | 0/9
GFTFDDYAMH | FISWNSGSIGQANSVK | VGRGGGYFDY | 3.75 nd nd | 3.75 | 1/9 (3.28)
GRTFDDYAMH | GITWNSGSIGYADSVK | VGRGGGYFDP | 4.49 7.35 5.26 | 5.70 | 8/9 (5.31)
GFTFDDYAMH | GISWNSGSIGSADSVK | VGRGGGYFDY | 3.46 3.45 3.44 | 3.45 | 2/9 (4.32)
GFTFDDYAMH | GVSWNNRSIGYADSVK | VGRGGGYFDY | 4.01 3.58 nd | 3.80 | 1/9 (3.15)
GFTFDDYAMH | GISWNDGSIGYADIVK | VGRGGGYYDY | 4.14 nd nd | 4.14 | 0/9
GFTFDDCAMH | GISWNSGSIGYADSVK | MGRGGSYFDY | 5.00 nd 4.33 | 4.66 | 2/9 (4.07)
GFTFDDYAMH | GISWNSLSIGYADSVT | VGRGQGYFDY | 4.07 4.73 nd | 4.40 | 1/9 (4.44)
GFTKDDYAMH | GISWCSGSIGYADSVK | VGRGRGYFDY | 4.81 nd nd | 4.81 | 1/9 (4.68)
GFTFDDYAMP | GISWNVHSIGYADSVK | VGRGGGYFDY | 4.71 3.73 nd | 4.22 | 7/9 (4.49)
GFTFDDYAHH | GISWNSGSIGYADEVK | VGRGGGYFDY | nd nd nd | nd | 0/9
GFTFDDYAMH | GICWNSGSIGYADLVK | VGRGGGQFDY | nd 3.53 nd | 3.53 | 1/9 (2.49)

Picked from the list: the 3 lowest averages where every replicate gave a value.

CDR-H1	CDR-H2	CDR-H3	replicates, log10 nM	mean, log10 nM	signal with controls
GFTFDDYAMH	GISWNSGSIGSADSVK	VGRGGGYFDY	3.46 3.45 3.44	3.45	2/9 (4.32)
GFTFDDYKTH	GISWNSGSIGYADSVK	VGRGGGYFKY	6.29 4.26 4.52	5.02	2/9 (5.12)
GFTVDDYAMQ	GISWNSGSIGYADSVK	VGRGGGYFDY	4.95 5.23 5.23	5.14	6/9 (4.71)